Results on 17 molecules are retold here after patent US6916797B2, “α-arylethylpiperazine derivatives as neurokinin antagonists” (UCB, S.A., priority 2000, dated 2005).

Each structure is given as a SMILES string.

Test [1] has as its system verapamil binding site of the L-type calcium channel. Nature of the test: Inhibition of [3H]D888 binding to the verapamil binding site of the L-type calcium channel (rat cerebral cortex membranes). Conditions: 10 μmol/l of test substance.
The test system of test [2] is isolated rat aorta contracted by 100 mM KCl. The test is described as follows: Effect of compound on isolated rat aorta contracted by 100 mM KCl. The settings on record: 10^−5 M, contraction by 100 mM KCl.

With `C[C@@H](OC[C@H](c1ccccc1)N1CCN(CC(=O)O)CC1)c1cc(C(F)(F)F)cc(C(F)(F)F)c1`, the “% inhibition of [3H]D888 binding to the verapamil binding site of the L-type calcium channel” value (“% inhibition … of the L-type calcium channel” below) in test [1] (tested form: 2 HCl.5/2 H2O) is on record as 0 (0: inhibition < 20%).

`C[C@@H](OC[C@H](c1ccccc1)N1CCN(CCOCC(=O)O)CC1)c1cc(C(F)(F)F)cc(C(F)(F)F)c1`: the “% inhibition … of the L-type calcium channel” value in test [1] (tested form: 2 HCl.1 H2O) is reported as 0 (0: inhibition < 20%).

Consider `FC(F)(F)c1cc(COCC(c2ccccc2)N2CCN(CCCCCc3nnn[nH]3)CC2)cc(C(F)(F)F)c1` (centres unmarked), for which, in test [1] (tested form: 2 maleate), the “% inhibition … of the L-type calcium channel” value was “+ (+: inhibition comprised between 20 and 50%)”. Besides, in test [2] (tested form: 2 maleate), the “Result: effect of compound on isolated rat aorta contracted by 100 mM KCl” value (from here on “Result: effect of compound”) is “inactive à 10^−5 M”.

As for `CC(C)c1cccc(C(COCc2cc(C(F)(F)F)cc(C(F)(F)F)c2)N2CCN(CC(=O)O)CC2)c1` (racemic), the “% inhibition … of the L-type calcium channel” value in test [1] (tested form: 2 maleate) is “+ (+: inhibition comprised between 20 and 50%)”. For the molecule `Cc1ccc(C(COCc2cc(C(F)(F)F)cc(C(F)(F)F)c2)N2CCN(CC(=O)O)CC2)cc1` (racemic), the “% inhibition … of the L-type calcium channel” value in test [1] (tested form: 1 H2O) is recorded as 0 (0: inhibition < 20%). With `O=C(O)CN1CCCN(C(COCc2cc(C(F)(F)F)cc(C(F)(F)F)c2)c2ccccc2)CC1` (racemic), the “% inhibition … of the L-type calcium channel” value in test [1] (tested form: 2 HCl.3/2 H2O) is “+ (+: inhibition comprised between 20 and 50%)”.

As to `O=C(O)CN1CCN(C(COCc2cc(Br)cc(Br)c2)c2ccccc2)CC1` (racemic), the “% inhibition … of the L-type calcium channel” value in test [1] (tested form: 2 maleate) is recorded as 0 (0: inhibition < 20%). In the case of `O=C(O)CN1CCN(C(COCc2cc(Br)cc(I)c2)c2ccccc2)CC1` (racemic), the “% inhibition … of the L-type calcium channel” value in test [1] (tested form: 1 maleate.1 H2O) was “+ (+: inhibition comprised between 20 and 50%)”. With `O=C(O)CN1CCN(C(COCc2cc(C(F)(F)F)cc(C(F)(F)F)c2)c2cc(F)c(F)c(F)c2)CC1` (racemic), in test [1] (tested form: 1/2 H2O), the “% inhibition … of the L-type calcium channel” value is 0 (0: inhibition < 20%). Take `O=C(O)CN1CCN(C(COCc2cc(C(F)(F)F)cc(C(F)(F)F)c2)c2cccc(F)c2F)CC1` (racemic): the “% inhibition … of the L-type calcium channel” value in test [1] (tested form: 2 maleate) is reported as 0 (0: inhibition < 20%). As to `O=C(O)CN1CCN(C(COCc2cc(C(F)(F)F)cc(C(F)(F)F)c2)c2ccccc2[N+](=O)[O-])CC1` (racemic), the “% inhibition … of the L-type calcium channel” value in test [1] (tested form: 2 HCl) is 0 (0: inhibition < 20%).

As to `O=C(O)CN1CCN(C(COCc2cc(Cl)cc(Cl)c2)c2ccccc2)CC1` (racemic), in test [1] (tested form: 2 HCl), the “% inhibition … of the L-type calcium channel” value was 0 (0: inhibition < 20%). Further, in test [2] (tested form: 2 HCl), the “Result: effect of compound” value is “inactive à 10^−5 M”. For `O=C(O)c1cccc(CN2CCN(C(COCc3cc(C(F)(F)F)cc(C(F)(F)F)c3)c3ccccc3)CC2)c1` (racemic), the “% inhibition … of the L-type calcium channel” value in test [1] (tested form: 2 HCl.1/2 H2O) is “+ (+: inhibition comprised between 20 and 50%)”. In addition, the “Result: effect of compound” value in test [2] (tested form: 2 HCl.1/2 H2O) was “inactive à 10^−5 M”. With `O=P(O)(O)CCN1CCN(C(COCc2cc(C(F)(F)F)cc(C(F)(F)F)c2)c2ccccc2)CC1` (racemic), the “% inhibition … of the L-type calcium channel” value in test [1] (tested form: 2 HCl) is listed as 0 (0: inhibition < 20%). Consider `O=C(O)CN1CCN(C(COCc2cc(C(F)(F)F)cc(C(F)(F)F)c2)c2ccc(Cl)c(Cl)c2)CC1` (single isomer, unassigned), for which the “% inhibition … of the L-type calcium channel” value in test [1] (tested form: 1 H2O) is “+ (+: inhibition comprised between 20 and 50%)”. For `O=C(O)CN1CCN(C(COCc2cc(C(F)(F)F)cc(C(F)(F)F)c2)c2cccc(Cl)c2)CC1` (single isomer, unassigned), in test [1] (tested form: 2 maleate), the “% inhibition … of the L-type calcium channel” value was “+ (+: inhibition comprised between 20 and 50%)”. Regarding `O=C(O)c1cccc(CN2CCCN(C(COCc3cc(C(F)(F)F)cc(C(F)(F)F)c3)c3ccccc3)CC2)c1` (single isomer, unassigned), the “% inhibition … of the L-type calcium channel” value in test [1] (tested form: 2 maleate.1 H2O) is “+ (+: inhibition comprised between 20 and 50%)”.
